Molecular target: Histamine H1 receptor (Homo sapiens) (UniProt P35367)
Test: Inhibition of human Histamine H1 receptor at 1 uM relative to control

Sequences of proteins named here, by UniProt entry; tags and fusion partners are left off.
UniProt P35367, whole entry: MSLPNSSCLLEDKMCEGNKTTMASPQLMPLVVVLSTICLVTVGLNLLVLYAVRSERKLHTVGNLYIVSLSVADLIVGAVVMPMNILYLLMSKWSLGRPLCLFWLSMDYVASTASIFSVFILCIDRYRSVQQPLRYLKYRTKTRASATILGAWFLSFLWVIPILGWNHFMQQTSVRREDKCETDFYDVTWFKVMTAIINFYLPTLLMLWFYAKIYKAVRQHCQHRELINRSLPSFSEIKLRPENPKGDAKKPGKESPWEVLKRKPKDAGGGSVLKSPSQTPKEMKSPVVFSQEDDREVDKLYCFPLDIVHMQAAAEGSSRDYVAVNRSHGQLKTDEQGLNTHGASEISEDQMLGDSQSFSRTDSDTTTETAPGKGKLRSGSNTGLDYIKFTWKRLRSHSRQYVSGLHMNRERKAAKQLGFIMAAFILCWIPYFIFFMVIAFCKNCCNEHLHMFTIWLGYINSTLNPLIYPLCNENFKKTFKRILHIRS

Structure (SMILES): C[C@@H]1CCCN1CCCOc1ccc2c(c1)CC[C@H]1C3=CCC(=O)N[C@@]3(C)CC[C@H]21
- inhibition: 65%

From ChEMBL document CHEMBL5528071, “Discovery of Novel Steroid-Based Histamine H3 Receptor Antagonists/Inverse Agonists” (J Med Chem, 2024)
